Measured values published in publication PMC10762035, “Molecular basis of human trace amine-associated receptor 1 activation” (Nature Communications, 2024).
Positions count from the first letter of the chain named. Where “and” joins values, the source holds several entries; their conditions need not be identical. Equal entries are not always repeated. Where two headings read alike, the source gives them in different places.

Legend:
Assay type in all cases: cell-based
[1] = target: T1, β2AR-Nterm-hTA1-F112^3.41W (CryoEM Construct) (Homo sapiens, UniProt Q96RJ0, F112W); assay: GloSensor cAMP accumulation assay, cryoEM construct;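 further: cells transiently co-transfected with the receptor construct and GloSensor cAMP biosensor, luminescence read after 30 min compound exposure at room temperature in the dark as cAMP accumulation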
T1 construct: FLAG (N); 10xHis (N); TEV protease site (N); expressed in transfected cells; host or cells: HEK293T

[2] = target: T2, hTA1 b2N (Homo sapiens, UniProt Q96RJ0); assay: GloSensor cAMP accumulation assay, b2N construct; conditions: n=2
T2 construct: read by me as the first 25 residues of β2AR (N); expressed in transfected cells; host or cells: HEK293T

[3] = target: T3, hTA1 T271N (Homo sapiens, UniProt Q96RJ0, T271N); assay: GloSensor cAMP accumulation assay, T271N mutant
T3 construct: expressed in transfected cells; host or cells: HEK293T
T3 sequence (Q96RJ0 1-339 T271N): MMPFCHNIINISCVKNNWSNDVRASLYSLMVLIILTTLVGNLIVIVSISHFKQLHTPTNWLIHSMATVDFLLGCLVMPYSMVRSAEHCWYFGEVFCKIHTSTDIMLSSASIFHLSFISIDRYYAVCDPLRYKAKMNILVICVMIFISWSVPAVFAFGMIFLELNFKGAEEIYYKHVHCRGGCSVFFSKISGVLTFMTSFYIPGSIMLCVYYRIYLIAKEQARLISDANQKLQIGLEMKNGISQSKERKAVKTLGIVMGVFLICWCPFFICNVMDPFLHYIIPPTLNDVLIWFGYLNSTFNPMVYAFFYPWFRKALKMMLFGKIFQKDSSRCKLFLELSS

[4] = target: T4, hTA1 C13S (Homo sapiens, UniProt Q96RJ0, C13S); assay: GloSensor cAMP accumulation assay, C13S mutant
T4 construct: expressed in transfected cells; host or cells: HEK293T
T4 sequence (Q96RJ0 1-339 C13S): T3 sequence (Q96RJ0 1-339 T271N) with C13S, N271T

[5] = target: T5, hTA1 C88S (Homo sapiens, UniProt Q96RJ0, C88S); assay: GloSensor cAMP accumulation assay, C88S mutant
T5 construct: expressed in transfected cells; host or cells: HEK293T
T5 sequence (Q96RJ0 1-339 C88S): T3 sequence (Q96RJ0 1-339 T271N) with C88S, N271T

[6] = target: T6, hTA1 T271A (Homo sapiens, UniProt Q96RJ0, T271A); assay: GloSensor cAMP accumulation assay, T271A mutant
T6 construct: expressed in transfected cells; host or cells: HEK293T
T6 sequence (Q96RJ0 1-339 T271A): T3 sequence (Q96RJ0 1-339 T271N) with N271A

[7] = target: T7, hTA1 C88/178S (Homo sapiens, UniProt Q96RJ0, C178S/C88S); assay: GloSensor cAMP accumulation assay, C88S/C178S double mutant
T7 construct: expressed in transfected cells; host or cells: HEK293T
T7 sequence (Q96RJ0 1-339 C88S/C178S): T3 sequence (Q96RJ0 1-339 T271N) with C88S, C178S, N271T

[8] = target: T8, hTA1 F195T (Homo sapiens, UniProt Q96RJ0, F195T); assay: GloSensor cAMP accumulation assay, F195T mutant;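 further: cells transiently co-expressing HA-FLAG-tagged hTA1 and the GloSensor cAMP biosensor, luminescence read 30 min after agonist addition at room temperature, concentration-response fitted by nonlinear regression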
T8 construct: expressed in transfected cells; host or cells: HEK293T
T8 sequence (Q96RJ0 1-339 F195T): T3 sequence (Q96RJ0 1-339 T271N) with F195T, N271T

SMILES: CCc1[nH]nc(C(=O)Nc2ccc([C@H]3CNCCO3)cc2)c1C [ralmitaront]
- EC50 ([1]; Cryo EM Construct, mean of each independent experiment (3 replicates), read-out: pEC50 values, Mean (converted)): 1550 nM and 1180 nM
- EC50 ([1]; CryoEM Construct, n=2, read-out: EC50): 1350 nM
- EC50 [2]: 25.7 nM
- EC50 ([3]; T271N mutant, Figure 5B, each row one independent experiment (3 replicates), read-out: pEC50 values, Mean (converted)): 99 nM and 143 nM
- EC50 ([3]; T271N, n=2, read-out: EC50): 119 nM
- EC50 ([4]; C13S, n=2, read-out: EC50): 140 nM
- EC50 ([4]; hTA1 C13S, mean of 3 replicates, one line per independent experiment, read-out: pEC50 values, Mean (converted)): 158 nM and 124 nM
- EC50 ([5]; Mean of fit per experiment, read-out: pEC50 values (converted)): 64 nM and 76.5 nM
- EC50 ([5]; n=2, read-out: EC50): 70 nM
- ΔpEC50 values (each mutant value - WT average), Mean ([6]; T271A mutant minus WT average, Figure 5B): -0.2556
- EC50 ([6]; T271A mutant, Figure 5B, each row one independent experiment (3 replicates), read-out: pEC50 values, Mean (converted)): 114 nM and 199 nM
- EC50 ([6]; T271A, n=2, read-out: EC50): 151 nM
- EC50 ([7]; C88/178S, n=2, read-out: EC50): 113 nM
- EC50 ([7]; C88S, C178S, each row is one independent experiment, 3 replicates, read-out: pEC50 values, Mean (converted)): 145 nM and 88 nM
- EC50 ([8]; F195T mutant, Figure 5B, each row one independent experiment (3 replicates), read-out: pEC50 values, Mean (converted)): 101 nM and 93.7 nM
- EC50 ([8]; F195T, n=2, read-out: EC50): 621 nM
